The text below walks through data of publication PMC10981688 (2024).

The target in the assay is recombinant human LOX1 (lectin-type oxidized LDL receptor 1) (human). In words: BLI. In general terms: In BLI a coated tip is dipped into the sample, and binding shifts an interference pattern.

B1: recombinant human PCSK9 with 6x His tag (proprotein convertase subtilisin/kexin type-9) (natural protein)
chain: not shown
One may read the koff as a measure of how fast the partners let go of each other. As for B1, the koff was 0.00972 s⁻¹.
